Results as given in ChEMBL document CHEMBL4613227, “Synthesis and evaluation of the HIF-1α inhibitory activity of 3(5)-substituted-4-(quinolin-4-yl)- and 4-(2-phenylpyridin-4-yl)pyrazoles as inhibitors of ALK5” (Bioorg Med Chem Lett, 2020).

Biological target: T1, TGF-beta receptor type-1 (Homo sapiens) (UniProt P36897)
T1 sequence (whole entry): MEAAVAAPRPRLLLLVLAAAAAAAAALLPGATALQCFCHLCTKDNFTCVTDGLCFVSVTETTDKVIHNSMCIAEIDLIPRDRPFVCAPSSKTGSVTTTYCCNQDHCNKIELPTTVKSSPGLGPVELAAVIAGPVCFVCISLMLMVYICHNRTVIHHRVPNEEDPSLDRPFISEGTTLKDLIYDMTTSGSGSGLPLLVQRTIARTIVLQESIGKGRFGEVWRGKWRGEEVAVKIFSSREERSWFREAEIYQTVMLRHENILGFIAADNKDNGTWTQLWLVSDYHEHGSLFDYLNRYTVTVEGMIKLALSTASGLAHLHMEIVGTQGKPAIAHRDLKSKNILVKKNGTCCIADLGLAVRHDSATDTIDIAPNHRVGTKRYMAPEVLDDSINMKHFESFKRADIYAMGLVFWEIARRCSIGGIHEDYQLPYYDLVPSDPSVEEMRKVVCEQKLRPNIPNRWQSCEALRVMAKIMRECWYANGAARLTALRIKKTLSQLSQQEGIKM
Assay: Inhibition of recombinant GST-tagged human ALK5 expressed in baculovirus infected Sf9 insect cells assessed as residual activity at 10 uM
In short: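 Single-point kinase screen at 10 μM, in duplicate; ALK5 as human GST-fusion from baculovirus/Sf9, p38α as untagged human protein from E. coli; residual activity relative to DMSO vehicle, mean ± SD of two independent experiments.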

Cc1cccc(-c2nn3c(c2-c2ccnc4ccc(C(N)=O)cc24)CCC3)n1 [GALUNISERTIB]
Activity: 1%
